Results as given in patent US20260382690A1, “Dual-Domain Peptide for Depleting HMGB1 from the Circulation via Liver HSPG System” (published 2026).

Tested on: facialis arteries
Assay: Endothelial-dependent (ACh-induced) vasodilation of isolated facialis arteries from treated SS mice
Settings: 2.72 mg/kg/d, subcutaneous, 3 weeks
Experimental: Effects of hE-HMGB1-BP on vasodilation, eNOS-dependent vasodilation, and plasma HMGB1. Townes SS mice were treated daily with hE-HMGB1-BP (Biomatik Corp., Kitchener, Ontario; 2.72 mg/kg/d, subcutaneous injection) for three weeks. On the day of the vasodilation studies, mice were anesthetized with isoflurane (1-3%), subjected to thoracotomy, and euthanized by exsanguination. A hypodermic needle was inserted into the heart's right side, and blood was drawn into EDTA. Plasma was separated by centrifugation. The plasma was divided into aliquots and stored at −80 °C until analysis for HMGB1 using ELISA kits from Tecan (30164033, Männedorf, Switzerland) as described. Facialis arteries were isolated by microdissection, cannulated, and pressurized to 60 mmHg. Changes in vasodilation of (5Z)-7-[(1R,4S,5S,6R)-6-[(1E,3S)-3-hydroxy-1-octenyl]-2-oxabicyclo[2.2.1]hept-5-yl]-5-heptenoic acid (U46619)-preconstricted, pressurized facialis arteries were determined by video microscopy in response to acetylcholine (Ach) (10-7-10-4 M) as before. After determining vasodilation in the absence of N(G)-nitro-L-arginine methyl ester (L-NAME), the bath's MOPS physiological buffer [CaC12 2H2O (2.0 mM), EDTA (0.02 mM), glucose (5.0 mM), KCl (4.7 mM), MgSO4·7H2O (1.17 mM), MOPS (3.0 mM), NaCl (145 mM), NaH2PO4OH2O (1.2 mM), pyruvic acid (2.0 mM)] was replaced with 37 °C MOPS physiological buffer containing L-NAME (100 μM) and Ach-induced relaxation responses determined once again, as above. eNOS-dependent vasodilation was determined from the area between curves (ABC). The area between vasodilation curves in the absence and presence of L-NAME was calculated using the area under the curve function in Prism GraphPad 9.5.0 after correction of paired data for negative relaxation responses. […]
Effects of inhibiting GSNOR on vasodilation in SS mice. […] Relaxation responses to Ach (10-7 to 10 4 M) were determined in MOPS physiological buffer in the absence and presence of L-NAME by video microscopy as described. […]

CC[C@H](C)[C@H](NC(=O)CNC(=O)[C@H](CCCCN)NC(=O)[C@@H](NC(=O)[C@H](CC(=O)O)NC(=O)[C@H](Cc1ccccc1)NC(=O)[C@H](CC(N)=O)NC(=O)[C@H](CC(N)=O)NC(=O)[C@H](C)NC(=O)[C@H](CO)NC(=O)[C@H](Cc1c[nH]cn1)NC(=O)[C@H](C)NC(=O)CNC(=O)CNC(=O)[C@H](CCCNC(=N)N)NC(=O)[C@H](CC(C)C)NC(=O)[C@H](CC(C)C)NC(=O)[C@H](CCCNC(=N)N)NC(=O)[C@H](CCCCN)NC(=O)[C@H](CCCNC(=N)N)NC(=O)[C@H](CC(C)C)NC(=O)[C@H](CCCCN)NC(=O)[C@H](CCCNC(=N)N)NC(=O)[C@H](CC(C)C)NC(C)=O)C(C)C)C(N)=O
endothelial-dependent vasodilation versus AA mice (ns, p=0.1071): essentially equivalent to the endothelial-dependent vasodilation in AA mice
increase in endothelial-dependent vasodilation versus SS+PBS mice (p<0.0001): more than 2.5 times
